Reference: patent US20260274986A1, “USE OF CHIMERA IN TARGETED PROTEIN DEGRADATION TECHNOLOGY” (SUN YAT-SEN UNIVERSITY, priority 2023, published 2026)

Assays:
SKOV3 cells = experiment: In vivo anti-tumor activity, SKOV3 subcutaneous tumor in nude mice; conditions: 15 mg/kg intraperitoneal every 4 days, versus model group (PBS)
Text: In this Example 50 SPF-grade nude/nude female mice were used as the experimental animals. The mice were purchased from Beijing Vital River Laboratory Animal Technology Co., Ltd. (Animal Use License No.: SCXK (Jing) 2021-0006), were 6-8 weeks old and weighed 20-25 g. All the mice were housed under a 12-hour light/dark cycle with unrestricted access to food and water, at room temperature and 55% humidity.
A suspension of SKOV3 cells (1×10^7 cells) were subcutaneously inoculated into the right hind limb of each nude mouse with an inoculation volume of 0.2 mL. The model was considered successfully established when the tumor volume reached 100-150 mm^3.
Administration Method: According to the grouping, each mouse was administered 15 mg/kg via intraperitoneal injection every 4 days. The model group received PBS injections.
Sample Collection and Detection: 24 hours after the last administration, the mice were euthanized by cervical dislocation. Subcutaneous tumor tissues were collected. The long and short diameters of the tumor tissues from the mice were measured and the tumor mass was weighed. Tumor volume was calculated using the formula: Tumor Volume=(Length×Width^2)/2.

[1] = tested on: lysosomes and lysosome-related organelles; experiment: Electron microscopy of lysosomes and lysosome-related organelles; assay type: cell-based; conditions: Tz versus untreated normal cells; Ab6 versus Tz group
Text: In this Example, an electron microscope was further used to observe the changes in intracellular lysosomes and lysosome-related organelles including early endosomes, late endosomes, and endolysosomes.

With Trastuzumab [Tz, reference compound] the “tumor growth, tumor volume (FIG. 21A)” value (SKOV3 cells) was “a certain inhibitory effect on tumor growth” and the “number of early endosomes, late endosomes, endolysosomes and lysosomes (electron microscopy, FIG. 17)” value [1] was “obvious increased number”.
